The text below walks through data of publication PMC7672622, “Interaction of Cucurbit[7]uril with Oxime K027, Atropine, and Paraoxon: Risky or Advantageous Delivery System?” (2020).

One series concerns paraoxon-poisoned mice. Put plainly: functional observatory battery (FOB) and survival. The note with it: K027 and K027@CB[7] given with atropine.
Series [1] can be described thus: pharmacokinetic study of atropine, plasma and brain, LC-HRMS. The note with it: atropine 10 mg/kg i.m., mean ± SEM, n = 3.

For the compound `CN1[C@@H]2CC[C@H]1C[C@@H](OC(=O)C(CO)c1ccccc1)C2` (stereo partly drawn), the “survival until the end of the experiment (24 h)” value with paraoxon-poisoned mice was “survived”. Also, the λz in series [1] (brain) is 0.007 ± 0.001 L/min; in series [1] (plasma), 0.024 ± 0.01 L/min.
